Permeability data for macrocyclic peptides

Values of Barlow et al. 2020, doi:10.1021/acschembio.0c00218, as listed in CycPeptMPDB.

PAMPA measures passive passage through an artificial lipid membrane.
Permeability is given as log10 of P in cm/s; higher (less negative) is more permeable.
A value with < or ≤ is an upper limit.

compound,PAMPA (log10 cm/s)
CC[C@H](C)[C@@H]1NC(=O)CCCNC(=O)[C@H](CC(C)C)N(C)C(=O)[C@H](CCC(=O)OC)NC(=O)[C@H](CC(C)C)N(C)C1=O,-5.48
CCOC(=O)N(C(=O)C[C@@H]1NC(=O)[C@H](CC(C)C)N(C)C(=O)[C@H]([C@@H](C)CC)NC(=O)CCCNC(=O)[C@H](CC(C)C)N(C)C1=O)C(=O)OCC,-5.09
CC[C@H](C)[C@H]1C(=O)N(C)[C@@H](CC(C)C)C(=O)N[C@@H](CC(C)C)C(=O)N(C)[C@@H](CC(C)C)C(=O)N(C)CCCC(=O)N1C,-5.30
CC[C@H](C)[C@@H]1NC(=O)CCCNC(=O)[C@H](CC(C)C)NC(=O)[C@H](CC(C)C)NC(=O)[C@H](CC(C)C)NC1=O,-6.70
CC[C@H](C)[C@@H]1NC(=O)CCCNC(=O)[C@H](CC(C)C)N(C)C(=O)[C@H](CC(N)=O)NC(=O)[C@H](CC(C)C)N(C)C1=O,< -7.00
CC[C@H](C)[C@@H]1NC(=O)CCCNC(=O)[C@H](CC(C)C)N(C)C(=O)[C@H](CC(=O)OC)NC(=O)[C@H](CC(C)C)N(C)C1=O,-5.41
CC[C@H](C)[C@@H]1NC(=O)CCCNC(=O)[C@H](CC(C)C)N(C)C(=O)[C@H](CC(C)C)NC(=O)[C@H](CC(C)C)N(C)C1=O,-5.26
CC[C@H](C)[C@@H]1NC(=O)CCCNC(=O)[C@H](CC(C)C)N(C)C(=O)[C@H](CCC(=O)O)NC(=O)[C@H](CC(C)C)N(C)C1=O,< -7.00
CC[C@H](C)[C@@H]1NC(=O)CCCN(C)C(=O)[C@H](CC(C)C)N(C)C(=O)[C@H](CC(C)C)NC(=O)[C@H](CC(C)C)N(C)C1=O,-5.37
CC[C@H](C)[C@@H]1NC(=O)CCCNC(=O)[C@H](CC(C)C)N(C)C(=O)[C@H](CCCCN)NC(=O)[C@H](CC(C)C)N(C)C1=O,< -7.00
CC[C@H](C)[C@@H]1NC(=O)CCCN(C)C(=O)[C@H](CC(C)C)NC(=O)[C@H](CC(C)C)N(C)C(=O)[C@H](CC(C)C)NC1=O,-5.30
CCOC(=O)n1cnc(C[C@@H]2NC(=O)[C@H](CC(C)C)N(C)C(=O)[C@H]([C@@H](C)CC)NC(=O)CCCNC(=O)[C@H](CC(C)C)N(C)C2=O)c1,-5.46
CC[C@H](C)[C@H]1C(=O)N[C@@H](CC(C)C)C(=O)N[C@@H](CC(C)C)C(=O)N(C)[C@@H](CC(C)C)C(=O)NCCCC(=O)N1C,-5.27
CC[C@H](C)[C@@H]1NC(=O)CCCNC(=O)[C@H](CC(C)C)N(C)C(=O)[C@H](CC(=O)O)NC(=O)[C@H](CC(C)C)N(C)C1=O,< -7.00
CCOC(=O)N(C(=O)CC[C@@H]1NC(=O)[C@H](CC(C)C)N(C)C(=O)[C@H]([C@@H](C)CC)NC(=O)CCCNC(=O)[C@H](CC(C)C)N(C)C1=O)C(=O)OCC,-5.25

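The data file gives no further conditions (lipid, pH, time, direction or concentration), and values from different papers need not be comparable. The list need not hold all peptides of the study. Entries at the database's floor value (log10 P of -10) are not listed.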